## Binding of CDR-mutated scFvs to a peptide of the spike HR2 region

Antigen: PDVDLGDISGINAS, a 14-residue peptide of the SARS-CoV-2 spike HR2 region.

Each scFv is VH, a (GGGGS)3 linker, VL, as in the parent Ab-14, and differs from it in the CDRs of the heavy chain only.
VH: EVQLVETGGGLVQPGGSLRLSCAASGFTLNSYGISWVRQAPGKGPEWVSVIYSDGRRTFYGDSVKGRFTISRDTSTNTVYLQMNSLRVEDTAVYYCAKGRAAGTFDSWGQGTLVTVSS
VL: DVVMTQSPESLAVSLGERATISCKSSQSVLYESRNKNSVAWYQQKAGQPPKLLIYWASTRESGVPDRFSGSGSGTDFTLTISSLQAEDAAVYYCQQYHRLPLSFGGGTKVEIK

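The parent was found by panning a naive human phage display library on the peptide. The variants were designed computationally from a first round of random CDR variants and then made and measured. Group labels follow the data file (Ctrl: baseline library sampled from a position-specific scoring matrix, with some repeated check sequences; Rand: our label for a block that the file lists under HC and that is probably the random mutants of the ten best first-round binders; En: ensemble of fine-tuned language models; GP: Gaussian process model; GPLM: also part of the Gaussian process libraries; HC: hill climbing; Gen: genetic algorithm; Gibbs: Gibbs sampling; a sequence that several methods proposed may carry one label only). The scFvs were displayed on barcoded MATa yeast, the peptide on MATalpha yeast. After mating in shaken culture at 30 °C for 16 h, diploids were selected and their barcode pairs sequenced. The ratio of observed to expected reads was calibrated, replicate by replicate, on BCL2-family standards whose Kd was known from biolayer interferometry. There are six technical replicates.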

The parent's heavy chain CDRs are GFTLNSYGIS, VIYSDGRRTFYGDSVK, GRAAGTFDS; each variant's own CDRs replace them letter for letter. The Kd shown is the geometric mean over detected replicates; a lower Kd is a better binder. An entry "nd" has no value in the source: the pair was not observed among the diploids in any replicate. This suggests poor binding but is not conclusive. The parent sequence was in this pool as ten entries: three were never detected, three once, and four in most replicates, with averages from 2.2 nM to 240 nM. A sequence that the file lists under several names has all its replicates pooled. The authors' rule: three or more of the six replicates give a measured affinity, fewer mean a poor binder. Nonspecific signal, from three strains lacking the peptide, appeared in 1% of pairings of all heavy chain designs, centred on 120 nM (5% of these signals below 7.0 nM); values are not corrected for it. The control count says in how many pairings with the empty strains this scFv gave a signal. Values of this round are not directly comparable with the first-round values of the same sequences.

| CDR-H1 | CDR-H2 | CDR-H3 | group | Kd (apparent) | detected | empty controls |
|---|---|---|---|---|---|---|
| GFDLNEYGIS | VIYADGRRTFYADSVK | GELAGTFDV | En_HC | 250 pM | 6/6 | 0/18 |
| GFTLNSYGIS | VIYRDGRRTFYGDSVK | GTAAGTFDS | Ctrl | nd | 0/6 | 0/18 |
| GFDLMEYGIS | VIYADGIRSKVTDNVK | GMLTGTAVV | En_Gibbs | nd | 0/6 | 0/18 |
| GFDLNEYGIS | VIYADGKRTAYADDVK | GKNAGTFDV | En_Gen | 270 pM | 6/6 | 0/18 |
| GFDLNSYGIS | VIYSDGRRTFYVDSVK | GRHAGTFDS | GP_Gen | 11 nM | 6/6 | 0/18 |
| GFTLNSYGIS | VIYSDGRRTFYGDSVK | LRAAGTFDS | Ctrl | 41 nM | 1/6 | 0/18 |
| GFDLNEYGIS | VIYADGRRTSYKDSVK | GENAGTFNV | En_HC | nd | 0/6 | 0/18 |
| GFDLNEYGIS | VIYADGVRTAYADSVK | GSNAGTFDV | En_Gen | 340 pM | 6/6 | 0/18 |
| GFTNFDYGIS | VYYSDGRRTQYIDSVK | GNAAGTFDS | Rand | nd | 0/6 | 0/18 |
| GFNLDEYGIS | VIYADGYRTMYIDAVK | GMNSGFGGT | En_Gibbs | 170 nM | 1/6 | 0/18 |
| GFELNEYGIS | VIYSDGRRTFYGDSVK | GKVAGTFDS | GP_Gen | 560 pM | 6/6 | 0/18 |
| GFTLNMYGIS | VIYSDGRRTFYADKVK | GRAAGTFPS | Ctrl | nd | 0/6 | 0/18 |
| GFSLNSYGIS | VIYADGRRTFYGDSVK | GKAAGTFDS | GPLM_Gen | 1.2 nM | 6/6 | 0/18 |
| GFTLDSYGIH | VIYSDGRRTFYADSVR | GRAAGTFDS | Ctrl | 15 nM | 6/6 | 1/18 |
| GFDLNEYGIS | VIYADGRRTFYADSVK | GNIAGTFDS | En_HC | 220 pM | 3/6 | 0/18 |
| GFDLNEYGIS | VIYADGRRTFYLDSVK | GQLAGTFDI | En_HC | 170 pM | 6/6 | 0/18 |
| GFDLNSYGIS | VIYSDGRRTFYADEVK | GQAAGTFDN | GP_Gibbs | nd | 0/6 | 0/18 |
| GFDLNEYGIS | VIYADGMRTAYDDSVK | GQLAGTFDF | En_HC | 200 pM | 6/6 | 0/18 |
| GFPLNEYGIS | VIYSDGRRTFYGDSVK | GRTAGTFDT | GPLM_Gen | 1.8 nM | 6/6 | 1/18 |
| GFDMNSYGIS | VIYSDGRRTFYGDSVK | GENAGTFDS | Ctrl | 39 nM | 6/6 | 0/18 |
| GFDLNEYGIS | VIYADGKRTAYSDDVK | GNVAGTFDQ | En_Gen | 340 pM | 6/6 | 0/18 |
| GFDLNEYGIS | VIYADGIRQAYEDSVK | GRNIIGFLF | En_Gibbs | nd | 0/6 | 0/18 |
| GFTLNEYGIS | VIYSDGYRTFYGDSVK | GRAAVTFDT | GPLM_HC | nd | 0/6 | 0/18 |
| GFELNMYGIS | VIYSDGRRTFYADSVK | GQTAGTFDS | GP_Gen | 910 pM | 6/6 | 1/18 |
| GFHLNSYGIS | VIYADGRRTFYGDSVK | GKAAGTFDS | GPLM_Gen | 2.6 nM | 6/6 | 0/18 |
| GFSLNTYGIS | VIYSDGRRTFYGDRVK | GEAAGTFDS | GP_Gibbs | 5.7 nM | 6/6 | 1/18 |
| GFQLNSYGIS | VIYSDGRRTAYGDQVK | GRAAGTFDS | GP_Gibbs | nd | 0/6 | 0/18 |
| GFTLNEYGIS | VIYSDGWRTFYGDSVK | GRAAGTFDS | Ctrl | 32 nM | 6/6 | 1/18 |
| HFSLNSYGIS | VIYSDGRRTAYGDSVK | GRTAGTFDS | GP_Gibbs | 4.1 nM | 5/6 | 0/18 |
| GFDLNEYGIS | VIYADGMRTAYADKVK | GNQAGTFDL | En_Gen | 1.7 nM | 6/6 | 0/18 |
| GFTLNSYGIS | VIYSDGERTFYDDDVK | GRAAGTFDS | Ctrl | 42 nM | 2/6 | 0/18 |
| GFDLDEYGIS | VIYADGVRTAYADSVK | GNQAGTFDM | En_Gen | 840 pM | 6/6 | 2/18 |

The remaining entries, values ahead:

| Kd (apparent) | detected | empty controls | CDR-H1 | CDR-H2 | CDR-H3 | group |
|---|---|---|---|---|---|---|
| nd | 0/6 | 0/18 | GKSLNEYGIS | VIYSDGRRTFYGDSVK | GRAAVTFDQ | GP_HC |
| 300 pM | 6/6 | 0/18 | GFDLNEYGIS | VIYADGMRTFYVDSVK | GQVAGTFNV | En_HC |
| nd | 0/6 | 0/18 | GFTLNSYGPS | VIYSDGRRTFYSDSVK | GRAGGTFDR | Rand |
| 1.9 nM | 6/6 | 0/18 | GFQLDEYGIS | VIYADGMRTFYQDSVK | GEVAGTFDS | En_HC |
| 42 nM | 2/6 | 0/18 | GFALNSYGIS | VIYSDGERTFYGDSVK | GRAAGTFDS | Ctrl |
| 210 pM | 6/6 | 0/18 | GFDLDEYGIS | VIYADGMRTAYSDSVK | GNTAGTFDI | En_Gen |
| nd | 0/6 | 0/18 | GFTLNSYGIS | VIYSDGFRTFYMDSVK | GSAAGTFDS | Ctrl |
| 910 pM | 6/6 | 0/18 | GFTLNEYGIS | VIYSDGRRTFYGDSVK | GRCAGTFDT | GPLM_HC |
| 450 pM | 6/6 | 0/18 | GFDLNEYGIS | VIYADGLRTAYADDVK | GEVAGTFDV | En_Gen |
| 160 nM | 2/6 | 1/18 | GFVLNEYGIS | VIYSDGRRTFYGDSVK | GKAAGTFDC | GP_Gibbs |
| 1.6 nM | 12/12 | 0/36 | GFDLNSYGIS | VIYSDGRRTFYGDSVK | GRIAGTFDS | Ctrl+GPLM_Gen |
| nd | 0/6 | 0/18 | GFVLNSYGIS | VIYSDGRRTFYGDSVK | GRAAGTFSS | Ctrl |
| 320 nM | 1/6 | 1/18 | GFDLEEMGIS | VIYADGSRKVYQDAVK | GEVSGDFDK | En_Gibbs |
| 1.1 nM | 6/6 | 0/18 | GFDLNEYGIS | VIYADGKRTAYIDSVK | GNVAGTFDV | En_Gen |
| nd | 0/6 | 0/18 | GFTLNEYGIS | VIYSDGRRTFYGDSVK | GRAALTFIS | Rand |
| nd | 0/6 | 1/18 | GFELNDYPIS | VIYSDGRRTEYIDSVK | GRAAGTFDS | Rand |
| 3.2 nM | 6/6 | 0/18 | GFDLNSYGIS | VIYSDGKRTFYGDNVK | GRTAGTFDS | GP_Gen |
| 1.2 nM | 6/6 | 1/18 | GFTLNSYGIS | VIYSDGRRTFYSDSVK | GQTAGTFDT | GPLM_Gibbs |
| 210 nM | 5/6 | 0/18 | GFTLNSYGIS | VIYSDGQRTFYVDSVK | GRVAGTFDL | GP_Gibbs |
| nd | 0/6 | 0/18 | GFDLEEYGIS | VIYADGLRSFYADNFK | GWNSGTIAV | En_Gibbs |
| 920 pM | 6/6 | 0/18 | GFWLNDYGIS | VIYADGRRTFYGDSVK | GTAAGTFDS | GP_HC |
| 280 pM | 6/6 | 0/18 | GFDLDEYGIS | VIYADGMRTAYSDDVK | GNQAGTFDV | En_Gen |
| nd | 0/6 | 0/18 | GFALNSYGIS | VIYADGRRTFYGDSVK | RRAAGTFDS | Ctrl |
| 230 pM | 6/6 | 0/18 | GFDLDEYGIS | VIYADGMRTAYTDSVK | GNNAGTFDT | En_Gen |
| 39 nM | 5/6 | 0/18 | GFTLNSYGIS | VIYSDGRRTFYGDSVR | GRIAGTFDS | Ctrl |
| 14 nM | 4/6 | 0/18 | GFNLNSYGIS | VIYSDGRRTFYGDRVK | GRQAGTFDS | GP_Gen |
| nd | 0/6 | 0/18 | GFTGDSYGIS | VIYSDGRRTFYGDSVK | GPAAGTALS | Rand |
| 700 pM | 6/6 | 1/18 | GFDLEDYGIS | VIYADGRRTQYADSVK | GETAGTFDL | En_HC |
| 46 nM | 6/6 | 0/18 | GFHLNSYGIS | VIYSDGRRTFYSDSVK | GHAAGTFDS | GP_HC |
| nd | 0/6 | 0/18 | GTTLNSHGIS | VIYSDGRREFYGDSVK | GRKATYFDS | Ctrl |
| 2.6 nM | 6/6 | 1/18 | GFSLNEYGIS | VIYSDGRRTFYHDSVK | GRAAGTFDK | GPLM_Gen |
| 65 nM | 6/6 | 0/18 | GFTLNEQGIS | VIYSDGRRTFYGDSVK | GRAAGTFDS | Ctrl |
| 200 pM | 6/6 | 0/18 | GFDLNEYGIS | VIYADGVRTYYADSVK | GNVAGTFDL | En_Gen |

The 9 strongest on average among those seen in every replicate, once more:

CDR-H1	CDR-H2	CDR-H3	group	Kd (apparent)	detected	empty controls
GFDLNEYGIS	VIYADGRRTFYLDSVK	GQLAGTFDI	En_HC	170 pM	6/6	0/18
GFDLNEYGIS	VIYADGMRTAYDDSVK	GQLAGTFDF	En_HC	200 pM	6/6	0/18
GFDLNEYGIS	VIYADGVRTYYADSVK	GNVAGTFDL	En_Gen	200 pM	6/6	0/18
GFDLDEYGIS	VIYADGMRTAYSDSVK	GNTAGTFDI	En_Gen	210 pM	6/6	0/18
GFDLDEYGIS	VIYADGMRTAYTDSVK	GNNAGTFDT	En_Gen	230 pM	6/6	0/18
GFDLNEYGIS	VIYADGRRTFYADSVK	GELAGTFDV	En_HC	250 pM	6/6	0/18
GFDLNEYGIS	VIYADGKRTAYADDVK	GKNAGTFDV	En_Gen	270 pM	6/6	0/18
GFDLDEYGIS	VIYADGMRTAYSDDVK	GNQAGTFDV	En_Gen	280 pM	6/6	0/18
GFDLNEYGIS	VIYADGMRTFYVDSVK	GQVAGTFNV	En_HC	300 pM	6/6	0/18

Reference: Li et al. 2023, doi:10.1038/s41467-023-39022-2. File: FLAb, binding data.